Reference: paper PMC4667193 (Scientific Reports, 2015)

The chains behind the UniProt entries cited, without tags or fusion partners. Where a name states a change or a piece, a line headed by the entry shows the natural chain unless it says otherwise.
UniProt P10980, whole entry: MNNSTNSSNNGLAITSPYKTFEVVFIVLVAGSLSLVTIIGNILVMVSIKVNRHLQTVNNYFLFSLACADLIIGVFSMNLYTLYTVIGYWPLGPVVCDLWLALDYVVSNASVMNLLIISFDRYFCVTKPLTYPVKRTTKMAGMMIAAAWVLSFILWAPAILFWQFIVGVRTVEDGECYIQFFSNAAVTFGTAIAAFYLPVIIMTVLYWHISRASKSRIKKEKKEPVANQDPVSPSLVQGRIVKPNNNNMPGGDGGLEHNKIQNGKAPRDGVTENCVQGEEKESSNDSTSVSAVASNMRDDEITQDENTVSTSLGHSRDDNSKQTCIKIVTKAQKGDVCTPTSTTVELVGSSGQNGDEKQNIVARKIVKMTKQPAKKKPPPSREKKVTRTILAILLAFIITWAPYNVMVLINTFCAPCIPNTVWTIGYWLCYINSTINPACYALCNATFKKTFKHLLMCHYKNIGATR
UniProt P08485, whole entry: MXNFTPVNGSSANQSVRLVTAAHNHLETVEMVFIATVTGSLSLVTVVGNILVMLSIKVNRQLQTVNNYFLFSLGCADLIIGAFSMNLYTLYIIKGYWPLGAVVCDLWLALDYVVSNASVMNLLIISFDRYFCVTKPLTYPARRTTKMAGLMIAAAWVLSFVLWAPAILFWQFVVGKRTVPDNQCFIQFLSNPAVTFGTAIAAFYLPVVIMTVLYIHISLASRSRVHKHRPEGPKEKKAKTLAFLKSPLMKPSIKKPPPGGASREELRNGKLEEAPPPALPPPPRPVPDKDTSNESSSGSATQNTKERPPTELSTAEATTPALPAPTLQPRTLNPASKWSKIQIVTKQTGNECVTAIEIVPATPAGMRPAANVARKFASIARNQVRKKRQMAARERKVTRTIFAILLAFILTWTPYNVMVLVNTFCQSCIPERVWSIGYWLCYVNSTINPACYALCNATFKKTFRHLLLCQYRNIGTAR
UniProt P08911, whole entry: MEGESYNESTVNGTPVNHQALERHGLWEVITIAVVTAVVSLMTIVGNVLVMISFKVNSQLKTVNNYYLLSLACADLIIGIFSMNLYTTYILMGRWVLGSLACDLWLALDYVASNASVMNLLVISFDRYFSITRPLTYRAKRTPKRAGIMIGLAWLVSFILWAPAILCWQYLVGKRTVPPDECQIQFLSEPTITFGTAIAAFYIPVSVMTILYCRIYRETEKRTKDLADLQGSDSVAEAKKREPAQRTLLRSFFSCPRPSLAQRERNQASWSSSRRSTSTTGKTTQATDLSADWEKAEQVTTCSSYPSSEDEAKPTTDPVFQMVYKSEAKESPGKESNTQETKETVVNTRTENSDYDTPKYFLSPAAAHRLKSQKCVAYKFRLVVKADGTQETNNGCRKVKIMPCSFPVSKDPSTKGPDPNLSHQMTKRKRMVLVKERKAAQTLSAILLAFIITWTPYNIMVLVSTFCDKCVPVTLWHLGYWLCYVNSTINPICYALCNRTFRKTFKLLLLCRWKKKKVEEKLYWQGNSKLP
UniProt P08482: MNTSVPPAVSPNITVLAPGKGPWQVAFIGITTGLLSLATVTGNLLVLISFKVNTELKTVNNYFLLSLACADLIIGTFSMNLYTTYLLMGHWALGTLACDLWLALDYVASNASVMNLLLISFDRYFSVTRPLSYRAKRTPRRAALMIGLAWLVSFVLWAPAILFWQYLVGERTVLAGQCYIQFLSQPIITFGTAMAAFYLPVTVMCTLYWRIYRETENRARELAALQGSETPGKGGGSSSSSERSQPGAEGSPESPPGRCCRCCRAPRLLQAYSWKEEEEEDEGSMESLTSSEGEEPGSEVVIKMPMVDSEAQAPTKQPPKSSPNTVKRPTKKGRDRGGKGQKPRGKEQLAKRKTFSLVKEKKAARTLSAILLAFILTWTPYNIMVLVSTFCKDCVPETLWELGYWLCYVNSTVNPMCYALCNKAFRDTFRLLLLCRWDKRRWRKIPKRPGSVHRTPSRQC
UniProt P08483, whole entry: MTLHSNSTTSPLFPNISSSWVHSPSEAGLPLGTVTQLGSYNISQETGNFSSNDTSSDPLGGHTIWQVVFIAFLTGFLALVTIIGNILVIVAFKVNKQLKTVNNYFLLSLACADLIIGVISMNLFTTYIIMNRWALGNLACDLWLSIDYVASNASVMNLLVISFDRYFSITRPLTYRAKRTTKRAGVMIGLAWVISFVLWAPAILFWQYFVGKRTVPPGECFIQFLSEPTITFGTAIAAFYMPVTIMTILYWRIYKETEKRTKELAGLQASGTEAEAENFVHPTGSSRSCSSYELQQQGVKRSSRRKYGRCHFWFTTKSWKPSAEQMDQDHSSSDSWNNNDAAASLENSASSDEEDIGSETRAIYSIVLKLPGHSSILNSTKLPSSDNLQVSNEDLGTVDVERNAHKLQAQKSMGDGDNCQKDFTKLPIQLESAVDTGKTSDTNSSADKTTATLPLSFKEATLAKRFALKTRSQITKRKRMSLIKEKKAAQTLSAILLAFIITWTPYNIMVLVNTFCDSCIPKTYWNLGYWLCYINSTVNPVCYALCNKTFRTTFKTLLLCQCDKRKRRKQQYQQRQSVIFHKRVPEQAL

Experiments:
Assay in all cases: [^3H]NMS saturation binding, CHO cell membranes
[1] = molecular target: T1, Rat M2 mAChR (Rattus norvegicus, UniProt P10980); settings: for Bmax: CHO cells expressing rat M2
T1 construct: host or cells: CHO (CHO-K1) cells
Description: (§1) Membranes were prepared from CHO cells stably expressing individual rat mAChRs (rM1 to rM5). Briefly, media was removed, cells were washed with PBS and harvested with PBS into a centrifuge bottle. Cells were spun at 2,000 g for 5 minutes at 4 °C. After harvesting, the supernatant was gently discarded and cold membrane preparation buffer [Hanks’ balanced salt solution (HBSS; Invitrogen), 4.17 mM sodium bicarbonate, 20 mM HEPES and 0.5 mM EDTA] was added (10 mL/dish). Cells were then homogenized for 5–10 seconds with a rotary homogenizer (Polytron®) and centrifuged at 20,000g for 20 minutes at 4 °C. The homogenization/centrifugation cycle was repeated twice. After the last centrifugation, the supernatant was gently discarded and the pellet was resuspended in cold membrane preparation buffer (up to 2 mL). All binding reactions were performed in a total volume of 1 mL containing 25 μg of membrane protein. […] The equilibrium binding was terminated by rapid filtration using a 96-well harvester (Brandel®). Filters were washed three times with ice-cold harvesting buffer and were dried overnight. Radioactivity was counted using a TopCount NXT (PerkinElmer®) and counts were normalized to the maximal specific binding in the presence of vehicle. Saturation and competition binding data were analyzed using a weighted nonlinear least-squares interactive curve-fitting program GraphPad Prism (GraphPad Prism Software version 5.0). A mathematical model for one or two binding sites was applied. The equilibrium dissociation constant (KD) and the binding capacity (Bmax) were determined. The inhibition constant (Ki) was determined from competition curves using the Cheng and Prusoff equation[52].

[2] = molecular target: T2, Rat M4 mAChR (Rattus norvegicus, UniProt P08485)
T2 construct: host or cells: CHO (CHO-K1) cells
Description: as §1

[3] = molecular target: T3, Rat M5 mAChR (Rattus norvegicus, UniProt P08911); settings: for Bmax: CHO cells expressing rat M5
T3 construct: host or cells: CHO (CHO-K1) cells
Description: as §1

[4] = molecular target: T4, Rat M1 mAChR (Rattus norvegicus, UniProt P08482); settings: CHO cells expressing rat M1
T4 construct: host or cells: CHO (CHO-K1) cells

[5] = molecular target: T5, Rat M3 mAChR (Rattus norvegicus, UniProt P08483); settings: CHO cells expressing rat M3
T5 construct: host or cells: CHO (CHO-K1) cells

## CN1[C@@H]2C[C@@H](OC(=O)[C@H](CO)c3ccccc3)C[C@H]1[C@@H]1O[C@@H]12 [[^3H]NMS, l-[N-methyl-^3H]scopolamine]
[1]; rat M2
  Kd: 159 ± 22 pM
[2]; rat M4
  Kd: 38 ± 4 pM
[3]; rat M5
  Kd: 224 ± 16 pM

## [3H]CN1[C@@H]2C[C@@H](OC(=O)[C@H](CO)c3ccccc3)C[C@H]1[C@@H]1O[C@@H]12 [[^3H]NMS, l-[N-methyl-^3H]scopolamine]
[4]
  Bmax: 1087 ± 165 fmol/mg of protein
[5]
  Bmax: 1132 ± 033 fmol/mg of protein
[5]; listed as [3H]NMS
  Bmax: 1132±33 fmol/mg of protein
[1]
  Bmax: 1470 ± 053 fmol/mg of protein
[1]; listed as [3H]NMS
  Bmax: 1470±53 fmol/mg of protein
[2]; CHO cells expressing rat M4
  Bmax: 1835 ± 127 fmol/mg of protein
[3]
  Bmax: 1564 ± 027 fmol/mg of protein
[3]; listed as [3H]NMS
  Bmax: 1564±27 fmol/mg of protein
